Measured values as given in US5482948A, “Pyridyl derivatives and pharmaceutical compositions comprising these compounds” (Dr. Karl Thomae GmbH, priority 1991, dated 1996).

Target: T1, thromboxane synthetase (Homo sapiens, UniProt P24557)
T1 construct: endogenous in cells; host or cells: human platelets (platelet-rich plasma passed through Sepharose 2B)
T1 sequence (P24557 1-533): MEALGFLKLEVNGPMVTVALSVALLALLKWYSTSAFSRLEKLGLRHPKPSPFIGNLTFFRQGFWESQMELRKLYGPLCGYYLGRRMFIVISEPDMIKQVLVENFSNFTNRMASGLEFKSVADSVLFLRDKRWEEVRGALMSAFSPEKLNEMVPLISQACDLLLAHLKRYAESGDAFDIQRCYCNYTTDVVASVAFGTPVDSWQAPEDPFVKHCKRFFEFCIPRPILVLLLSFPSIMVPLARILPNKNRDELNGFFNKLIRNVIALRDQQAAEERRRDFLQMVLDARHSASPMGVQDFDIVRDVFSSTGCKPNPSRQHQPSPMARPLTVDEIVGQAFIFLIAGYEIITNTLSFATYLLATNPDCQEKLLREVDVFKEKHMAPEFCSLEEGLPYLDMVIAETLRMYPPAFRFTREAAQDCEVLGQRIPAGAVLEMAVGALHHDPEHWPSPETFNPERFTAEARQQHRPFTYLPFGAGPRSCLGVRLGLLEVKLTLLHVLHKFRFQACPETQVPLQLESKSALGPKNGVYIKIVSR
Assay: Inhibitory effect on thromboxane synthetase (TXB2 formation in human platelet suspension)
Assay type: cell-based
Conditions: 10 minutes at ambient temperature, then 14C-labelled arachidonic acid 10 minutes, read-out: Inhibition of thromboxane synthetase IC50
Protocol: Determining the Inhibitory Effect on Thromboxane Synthetase
Venous human blood is anti-coagulated with 13 mM Na3 citrate and centrifuged for 10 minutes at 170×g. The supernatant platelet-rich plasma is passed through a Sepharose 2B column in order to remove the plasma proteins. Aliquots of the platelet suspension obtained are incubated with the test substance or with a solvent as control for 10 minutes at ambient temperature and after the addition of ^14 C-labelled arachidonic acid incubation is continued for a further 10 minutes. After this has been stopped with 50 μl of citric acid, extraction is carried out 3 times with 500 μl of ethyl acetate and the combined extracts are distilled off with nitrogen. The residue is taken up in ethyl acetate, placed on TLC film and separated with chloro-form:methanol:glacial acetic acid:water (90:8:1:0.8, v/v/v/v). The dried TLC films are placed on X-ray film for 3 days, the autoradiograms were developed and the active zones were marked on the film using the autoradiograms. After cutting out, the activity is measured in a scintillation counter and the inhibition of the formation of TXB2 is calculated. The IC50 is determined by linear interpolation.

- IC50: 4 nM
Compound: CC(C)(C)NC(=NC#N)Nc1cccc(/C(=C\CCCC(=O)O)c2cccnc2)c1 [B, 5E-6-(3-(2-cyano-3-tert.butyl-guanidino)phenyl)-6-(3-pyridyl)hex-5-enoic acid]
